The test relates to PC-3 cells. The test is described as follows: Apoptosis analysis in PC-3 cells (DNA fragmentation ELISA, PARP cleavage). Format: cell-based, human. To be noted: concentrations greater than […].

As to `N=C(N)Nc1ccc(-n2nc(C(F)(F)F)cc2-c2ccc3c(ccc4ccccc43)c2)cc1`, the “potency in apoptosis induction compared with compound 59” value is “higher potency than compound 59”.

The values are drawn from patent US8741944B2, “Anti-infective agents against intracellular pathogens” (priority 2007, dated 2014).
